Values quoted from earlier work in patent publication US9938273B2 (Plexxikon Inc., priority 2015, dated 2018).

System: relapsed or chemotherapy-refractory FLT3-ITD+ AML patients
Settings: phase II monotherapy; cited from earlier work

CC(C)(C)c1cc(NC(=O)Nc2ccc(-c3cn4c(n3)sc3cc(OCCN5CCOCC5)ccc34)cc2)no1 [quizartinib]
composite complete remission (CRc) rate: about 50%
